The source of these data is patent US20250387499A1, “LIGAND-PAYLOAD CONJUGATES” (priority 2022, published 2025).

One test deals with JIMT-1. The test is described as follows: JIMT-1 xenograft in CB-17 SCID female model, tumor growth inhibition. Format: in vivo, mouse.
Another test deals with NCI-N87. In words: NCI-N87 xenograft in Balb/c nude female model, tumor growth inhibition. Format: in vivo, mouse. From the text: Tumor Growth Inhibition (TGITV) is defined as: TGITV (%)=[1−(Ti−T0)/(Vi−V0)]×100% Ti refers to the mean tumor volume of treatment group measured at each indicated time points following treatment; T0 refers to the tumor volume of treatment group when grouping; Vi refers to the mean tumor volume of control group measured at each indicated time points following treatment; V0 refers to the tumor volume of control group when grouping. […] There were 8 animals per group, and the tumors were allowed to grow to about 184 mm^3. The ADC was then administered i.v., single dose at day 0, at dosages of 0.5 mg/kg, 1 mg/kg, 2 mg/kg, or 4 mg/kg. The animals were measured twice a week (BIW) for tumor volume and body weight. Data analysis was performed using GraphPad and two-way ANOVA.

Marks after values point to notes of the source that are not given here.

Trastuzumab deruxtecan [ADC8]: the “TGI (%) (Day 27)” value was 91.48* % in the test with JIMT-1 (5 mg/kg i.v. at day 0 and 7, JIMT-1 in CB-17 SCID mice); 101.02** % in the test with JIMT-1 (10 mg/kg i.v. at day 0 and 7, JIMT-1 in CB-17 SCID mice). In addition, the “TGI (%) (Day 20)” value with NCI-N87 (0.5 mg/kg i.v. single dose at day 0, NCI-N87 in Balb/c nude mice) was 33.21** %; in the test on NCI-N87 (1 mg/kg i.v. single dose at day 0, NCI-N87 in Balb/c nude mice) it was 51.90** %; with NCI-N87 (2 mg/kg i.v. single dose at day 0, NCI-N87 in Balb/c nude mice), 74.86* %.
